Laboratory results taken from ChEMBL document CHEMBL1136760 (J Med Chem, 2003).

Chains of the proteins cited; added tags and fusions are not shown.
UniProt P31652, whole entry: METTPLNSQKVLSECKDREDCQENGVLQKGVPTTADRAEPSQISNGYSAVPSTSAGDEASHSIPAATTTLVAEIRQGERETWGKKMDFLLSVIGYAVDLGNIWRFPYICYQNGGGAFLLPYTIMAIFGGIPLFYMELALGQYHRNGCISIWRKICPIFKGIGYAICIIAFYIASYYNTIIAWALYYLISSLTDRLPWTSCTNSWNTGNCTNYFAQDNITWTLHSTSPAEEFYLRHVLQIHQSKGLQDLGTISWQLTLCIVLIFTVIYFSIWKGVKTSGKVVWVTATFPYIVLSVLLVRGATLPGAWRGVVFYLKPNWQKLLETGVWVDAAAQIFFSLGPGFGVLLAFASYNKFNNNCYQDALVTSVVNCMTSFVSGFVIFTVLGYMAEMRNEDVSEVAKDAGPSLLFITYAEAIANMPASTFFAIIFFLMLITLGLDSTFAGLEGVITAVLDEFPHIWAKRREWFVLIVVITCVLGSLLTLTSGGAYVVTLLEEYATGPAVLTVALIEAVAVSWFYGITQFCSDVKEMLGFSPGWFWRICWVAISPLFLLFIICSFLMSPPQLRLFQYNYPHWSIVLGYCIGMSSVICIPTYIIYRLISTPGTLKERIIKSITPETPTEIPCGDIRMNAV

Target: Sodium-dependent serotonin transporter (Rattus norvegicus, UniProt P31652)
Assay: Inhibition of [3H]citalopram binding to Serotonin transporter (5-HTT) in rat cortical tissue.
Procedure, shortened: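 Rat cortical P2 fraction homogenized in 16 volumes of ice-cold 25 mM sodium phosphate, pH 7.7. [3H]citalopram at 2 nM final; 1 µM clomipramine defines nonspecific binding. Usually seven drug concentrations, triplicates, organic solvent ≤0.3 vol %. Incubated 3 h at 0 °C, then filtered on PEI-soaked glass fibre and counted. IC50 and Hill coefficients from dose-response curves.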

SMILES: COC(=O)[C@H]1[C@@H](OC(=O)c2ccccc2)C[C@@H]2CC[C@H]1N2C [COCAINE]
- IC50: 389 nM
